Values of other authors as cited in patent US20230338417A1, “Improved Pharmaceutical Preparation” (priority 2020, published 2023).

chlorous acid
Acid dissociation constant as pKa at 298K: 2
